The results in this text go back to paper PMC5310672, “Crizotinib inhibits hyperpolarization-activated cyclic nucleotide-gated channel 4 activity” (Cardio-oncology, 2017).

By UniProt entry, the sequences of proteins in these tests, tags left out. Where a name states a change or a piece, a line headed by the entry shows the natural chain unless it says otherwise.
UniProt Q9Y3Q4: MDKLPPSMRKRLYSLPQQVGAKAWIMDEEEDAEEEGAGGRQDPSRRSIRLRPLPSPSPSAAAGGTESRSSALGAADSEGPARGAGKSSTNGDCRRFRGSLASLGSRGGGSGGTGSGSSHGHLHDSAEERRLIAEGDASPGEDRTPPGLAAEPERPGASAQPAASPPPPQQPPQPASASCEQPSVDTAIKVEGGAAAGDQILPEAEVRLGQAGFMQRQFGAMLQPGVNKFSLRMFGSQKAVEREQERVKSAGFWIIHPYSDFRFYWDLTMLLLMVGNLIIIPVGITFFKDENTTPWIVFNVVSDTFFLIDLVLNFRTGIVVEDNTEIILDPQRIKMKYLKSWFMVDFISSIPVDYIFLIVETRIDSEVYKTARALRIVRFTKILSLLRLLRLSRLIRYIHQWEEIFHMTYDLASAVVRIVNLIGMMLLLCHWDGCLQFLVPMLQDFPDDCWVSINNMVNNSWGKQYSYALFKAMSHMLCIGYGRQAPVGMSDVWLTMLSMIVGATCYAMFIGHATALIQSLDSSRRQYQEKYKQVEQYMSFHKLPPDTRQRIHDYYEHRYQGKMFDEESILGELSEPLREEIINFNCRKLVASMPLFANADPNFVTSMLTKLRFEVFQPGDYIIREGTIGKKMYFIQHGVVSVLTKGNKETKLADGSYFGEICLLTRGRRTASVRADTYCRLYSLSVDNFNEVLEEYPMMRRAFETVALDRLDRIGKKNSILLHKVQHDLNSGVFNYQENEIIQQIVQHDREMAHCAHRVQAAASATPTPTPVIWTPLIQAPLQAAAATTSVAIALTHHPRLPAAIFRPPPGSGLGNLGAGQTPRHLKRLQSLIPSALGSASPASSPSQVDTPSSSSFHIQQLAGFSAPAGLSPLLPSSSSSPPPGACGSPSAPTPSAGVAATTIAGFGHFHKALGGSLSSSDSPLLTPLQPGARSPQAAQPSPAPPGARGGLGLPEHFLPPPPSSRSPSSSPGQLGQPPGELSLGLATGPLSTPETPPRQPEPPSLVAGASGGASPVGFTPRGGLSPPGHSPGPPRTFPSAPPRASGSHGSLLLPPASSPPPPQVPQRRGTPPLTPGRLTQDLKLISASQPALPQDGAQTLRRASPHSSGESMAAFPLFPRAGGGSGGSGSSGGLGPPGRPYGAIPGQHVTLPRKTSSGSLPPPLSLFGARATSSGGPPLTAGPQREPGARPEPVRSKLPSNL

SMILES strings stand for the structures.

The assay addresses hyperpolarization-activated cyclic nucleotide-gated channel 4 (HCN4) (Homo sapiens, UniProt Q9Y3Q4). In words: cell-based.

As for `C[C@@H](Oc1cc(-c2cnn(C3CCNCC3)c2)cnc1N)c1c(Cl)ccc(F)c1Cl` [crizotinib], the IC50 amounted to 1400 ± 300 nM.

The term IC50 denotes the point on the concentration scale where inhibition reaches its midpoint. A low value points to higher potency.
